Read-outs that look alike come from different tables or passages of the source.
Legend:
[1] = molecular target: ORL1 receptor (Homo sapiens, UniProt P41146); conditions: for ORL1 % Inhibition @ 1 μM / % inhibition (ORL1) [1 μM]: test concentration 1 μM
[2] = molecular target: human μ opiate receptor (Homo sapiens, UniProt P35372); test: μ opiate receptor binding assay with [3H]-naloxone, membrane preparation of CHO-K1 cells (WGA-SPA beads); conditions: for MOP % Inhibition @1 μM / % inhibition (μ) [1 μM]: test concentration 1 μM
[3] = read-out: Ki (ORL1) mean [μm], mean
[4] = read-out: Ki (μ) mean [μm], mean

Amino acid sequences for entries named in this document (tags omitted). A change or cut given only in a name is not applied to a line headed by its entry.
UniProt P41146: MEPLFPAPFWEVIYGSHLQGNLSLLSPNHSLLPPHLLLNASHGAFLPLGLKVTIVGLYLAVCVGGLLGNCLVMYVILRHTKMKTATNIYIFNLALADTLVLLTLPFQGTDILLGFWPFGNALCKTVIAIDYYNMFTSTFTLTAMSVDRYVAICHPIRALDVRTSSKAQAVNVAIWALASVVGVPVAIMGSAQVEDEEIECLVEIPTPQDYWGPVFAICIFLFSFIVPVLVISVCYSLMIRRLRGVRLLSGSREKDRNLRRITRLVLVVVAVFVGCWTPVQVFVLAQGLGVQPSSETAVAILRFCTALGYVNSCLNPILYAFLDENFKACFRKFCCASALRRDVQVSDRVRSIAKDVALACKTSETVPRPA
UniProt P35372, whole entry, looked up: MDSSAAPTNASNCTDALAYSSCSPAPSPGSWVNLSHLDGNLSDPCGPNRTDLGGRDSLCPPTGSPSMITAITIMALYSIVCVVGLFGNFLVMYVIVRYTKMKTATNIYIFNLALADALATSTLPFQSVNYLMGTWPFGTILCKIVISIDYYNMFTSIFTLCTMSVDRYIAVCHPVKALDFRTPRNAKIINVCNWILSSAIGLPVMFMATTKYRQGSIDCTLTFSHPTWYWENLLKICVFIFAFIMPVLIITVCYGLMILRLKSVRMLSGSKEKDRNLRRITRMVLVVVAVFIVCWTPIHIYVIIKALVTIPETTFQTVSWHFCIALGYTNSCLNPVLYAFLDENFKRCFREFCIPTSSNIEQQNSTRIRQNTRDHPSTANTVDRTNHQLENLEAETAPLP

| Compound | Ki ([1]; read-out: ORL1 Ki) [nM] | ORL1 % Inhibition @ 1 μM [1] [%] | Ki ([2]; read-out: MOP Ki) [nM] | MOP % Inhibition @1 μM [2] [%] | Ki [1, 3] [nM] | % inhibition (ORL1) [1 μM] [1] [%] | Ki [2, 4] [nM] | % inhibition (μ) [1 μM] [2] [%] |
| --- | --- | --- | --- | --- | --- | --- | --- | --- |
| CN(C)[C@]1(c2ccccc2)CC[C@]2(CC1)CC(=O)N(CCC(C)(C)C(=O)NCCC#N)C2 | 118 | 67 | 34 | 95 | – | – | – | – |
| CN(C)C1(c2ccccc2)CCC2(CC1)CC(=O)N(CC(=O)NC(C)(C)C#N)C2 (stereo not drawn) | 40.5 | 87 | 10.3 | 94 | – | – | – | – |
| Cc1nccnc1C(=O)NCCCN1C[C@]2(CC[C@@](c3ccccc3)(N(C)C)CC2)CC1=O | 390 | 34 | 36 | 90 | – | – | – | – |
| CN(C)C1(c2cccs2)CCC2(CCN(Cc3ccc(F)cn3)C2)CC1 (stereo not drawn) | – | – | – | – | 1.75 | 94.5 | 1.7 | 100 |
| CN(C)C1(c2ccccc2)CCC2(CCN(C(=O)c3ccccc3)C2)CC1 (stereo not drawn) | – | – | – | – | 53.5 | 66 | 39 | 88 |
| CN(C)C1(c2cccs2)CCC2(CCN(Cc3ccncn3)C2)CC1 (stereo not drawn) | – | – | – | – | 13 | 79.5 | 15 | 96.5 |
| Cis-4-(8-Methylamino-3-oxo-8-pyridin-2-yl-2-azaspiro[4.5]decan-2-yl)-butyramide 2,2,2-trifluoro acetate | – | 4 | – | 27 | – | – | – | – |
| CN(C)[C@]1(c2ccccc2)CC[C@]2(CC1)CC(=O)N(CCCNC(=O)c1ccccc1)C2 | 59.5 | 74 | 5.6 | 95 | – | – | – | – |
| CN(C)C1(c2cccs2)CCC2(CCN(Cc3ccc(F)s3)C2)CC1 (stereo not drawn) | – | – | – | – | 0.65 | 97.5 | 1.03 | 100 |
| CN(C)C1(c2ccccn2)CCC2(CC1)CC(=O)N(CCCC(=O)O)C2 (stereo not drawn) | – | 2 | – | 6 | – | – | – | – |
| CN(C)C1(Cc2ccccc2)CCC2(CCN(Cc3ccccc3)C2)CC1 (stereo not drawn) | – | – | – | – | 33 | 80 | 3.6 | 94.5 |
| CCCCNC(=O)CN1CC2(CCC(c3ccccc3)(N(C)C)CC2)CC1=O (stereo not drawn) | 2.3 | 93 | 1.4 | 101 | – | – | – | – |
| CN(C)C1(c2ccccc2)CCC2(CC1)CC(=O)N(CC(C)(C)C(=O)N1CCNC(=O)C1)C2 (stereo not drawn) | 255 | 41 | – | 82 | – | – | – | – |
| CN(C)[C@]1(c2ccccc2)CC[C@]2(CC1)CC(=O)N(CCC(C)(C)C(=O)O)C2 | 69 | 79 | 117 | 85 | – | – | – | – |
| Cc1ccc(C2(N(C)C)CCC3(CCN(C(=O)/C=C/c4ccccc4)C3)CC2)s1 (stereo not drawn) | – | – | – | – | 4.95 | 97 | 1.3 | 103 |
| CN1CCC(CC(=O)N2CCC3(CCC(c4cccs4)(N(C)C)CC3)C2)CC1 (single isomer, unassigned) | – | – | – | – | – | 32.5 | – | 88 |
| CN(C)C1(c2ccc(F)s2)CCC2(CCN(C(=O)/C=C/c3ccccc3)C2)CC1 (stereo not drawn) | – | – | – | – | 4.5 | 90.5 | 2.25 | 100 |
| CN(C)C1(c2ccccc2)CCC2(CC1)CC(=O)N(Cc1ccccc1)C2 (stereo not drawn) | – | – | – | – | 72 | 62.5 | 460 | 61 |
| CNC(=O)C(C)(C)CN1C[C@]2(CC[C@@](c3ccccc3)(N(C)C)CC2)CC1=O | 145 | 51 | 160 | 85 | – | – | – | – |
| CN(C)[C@]1(c2ccccc2)CC[C@]2(CC1)CC(=O)N(Cc1cccnc1)C2 | 37.5 | 63 | 12 | 95 | – | – | – | – |
| Cis-N-[3-(8-Dimethylamino-3-oxo-8-phenyl-2-azaspiro[4.5]decan-2-yl)-propyl]-5-methyl-oxazole-4-carboxylic acid amide | 125 | 59 | 64 | 95 | – | – | – | – |
| CN(C)[C@]1(c2ccccc2)CC[C@]2(CC1)CC(=O)N(CCC(C)(C)C(=O)Nc1cnc(C(F)(F)F)nc1)C2 | 64.5 | 87 | 7.7 | 101 | – | – | – | – |
| CN(C)[C@]1(c2ccccc2)CC[C@]2(CC1)CC(=O)N(CC(=O)NCc1ccccc1)C2 | 3.8 | 93 | 3.1 | 101 | – | – | – | – |
| COCCCNC(=O)CCN1C[C@]2(CC[C@@](c3ccccc3)(N(C)C)CC2)CC1=O | 330 | 18 | 70 | 90 | – | – | – | – |
| CN(C)[C@]1(c2ccccc2)CC[C@]2(CC1)CC(=O)N(CC(=O)NCCCC#N)C2 | 31 | 76 | 11.4 | 96 | – | – | – | – |
